Data taken from patent publication US9688676B2, “Tyrosine kinase inhibitors” (PRINCIPIA BIOPHARMA INC., priority 2015, dated 2017).

Protein sequences, listed by entry. Tags and fused reporters are not part of them. Lines headed by an entry give the natural chain unless they say otherwise; changes in a name come on top.
UniProt Q06187: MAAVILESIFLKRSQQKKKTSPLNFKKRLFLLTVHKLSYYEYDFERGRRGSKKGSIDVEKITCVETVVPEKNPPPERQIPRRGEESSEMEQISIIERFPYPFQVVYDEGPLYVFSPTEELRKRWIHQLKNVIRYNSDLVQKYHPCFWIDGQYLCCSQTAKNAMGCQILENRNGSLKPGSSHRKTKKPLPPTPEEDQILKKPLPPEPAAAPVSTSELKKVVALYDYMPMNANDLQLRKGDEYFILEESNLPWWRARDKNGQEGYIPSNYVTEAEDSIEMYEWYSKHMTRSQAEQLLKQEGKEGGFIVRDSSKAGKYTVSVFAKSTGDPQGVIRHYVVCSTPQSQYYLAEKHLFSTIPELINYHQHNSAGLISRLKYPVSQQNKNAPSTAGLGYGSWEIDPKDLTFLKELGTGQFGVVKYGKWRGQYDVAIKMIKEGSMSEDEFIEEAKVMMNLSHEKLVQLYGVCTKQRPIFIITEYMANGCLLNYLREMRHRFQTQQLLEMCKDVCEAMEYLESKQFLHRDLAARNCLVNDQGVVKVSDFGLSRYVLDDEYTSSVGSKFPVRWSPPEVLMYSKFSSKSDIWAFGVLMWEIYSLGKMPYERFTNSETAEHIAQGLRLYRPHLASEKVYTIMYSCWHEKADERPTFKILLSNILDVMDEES

Target: BTK (Homo sapiens (Human), UniProt Q06187)
Assay: BTK enzymatic activity assay (Caliper-based kinase assay)
Assay type: biochemical
Settings: human recombinant BTK 0.5 nM, ATP 16 μM, 3 h room temperature
Method: A Caliper-based kinase assay (Caliper Life Sciences, Hopkinton, Mass.) was used to measure inhibition of BTK kinase activity of a compound of the present disclosure. […] The reaction was then terminated with EDTA, final concentration 20 mM and the phosphorylated reaction product was quantified on a Caliper Desktop Profiler (Caliper LabChip 3000). […] This value is presented as the IC50.

IC50: 9 nM
SMILES: CC1(C=C(C#N)C(=O)N2CCC[C@@H](n3c(=O)n(-c4ccc(Oc5ccccc5)cc4)c4c(N)nccc43)C2)CC1 [Compound 48, (R)-2-(3-(4-amino-2-oxo-3-(4-phenoxyphenyl)-2,3-dihydro-1H-imidazo[4,5-c]pyridin-1-yl)piperidine-1-carbonyl)-3-(1-methylcyclopropyl)acrylonitrile]
